# Laboratory results published in patent US20260193229A1, “BRISC DEUBIQUITINATING ENZYME INHIBITORS” (THE TRUSTEES OF THE UNIVERSITY OF PENNSYLVANIA, priority 2022, published 2026).
# Target: BRISC (Homo sapiens, UniProt P46736+Q15018)
# Assay: BRISC DUB inhibition assay with quenched K63-linked di-ubiquitin substrate (TAMRA fluorescence)
# Conditions: read-out: BRISC IC50 μM Range; Table 1, Activity Range Table
# Protocol: High throughput screening. A baculoviral expression system was established to purify milligram quantities of the entire BRISC complex from insect cells. The MultiBac system was used to clone all 4 components of the BRISC complex into one vector which was then packaged into the baculovirus genome using the methods described in Zeqiraj et al., 2015 (Mol. Cell).
# The assay buffer included: 50 mM HEPES-NaOH, pH 7.0; 100 mM NaCl; 1 mM DTT; 1 mg/ml BSA; and 0.03% Brij-35. BRISC was assayed at 1 nM (final concentration) with the substrate at 500 nM (final concentration). The final reaction volume was 20 μl in each 384 plate well (Corning, #3573; black, low flange, flat bottom) with a final concentration of compounds of 10 μM.
# A 5 ml of enzyme solution with BRISC at 2 nM in assay buffer was made by adding 10 μl of BRISC working stock (1 μM) to 5 ml of assay buffer. A 5 ml of substrate solution was made with […] of K63-diUbiquitin (made in-house) plus […] of IQF K63-diUbiquitin by adding the appropriate volumes of diUbiquitins to 5 ml of assay buffer. 45 μL of BRISC (enzyme solution) was dispensed into columns 1-11 of a 96 well PCR plate (skirted). Buffer was only dispensed in column 12 (no enzyme control). 45 μl of substrate solution was dispensed into columns 1-12 of a 96 well PCR plate (skirted). The plate was spun down at 3000 rpm (bench top centrifuge) at room temp for 2 min to remove any air bubbles. Using a Biomek FX, liquid handler (Bekman), 10 μl of BRISC (enzyme solution) was dispensed into the 4 quadrants of a 384 well plate. 200 nl of compounds was dispensed into each well of the 384 plates using the pin tool (columns A and B usually contain DMSO only, and serve as controls), and the plates were incubated for 10-15 minutes at room temperature. 10 μl of substrate solution was dispensed into the 4 quadrants of the 384 well plate. The plate was then incubated for 30 min at room temperature in the dark and read with settings suitable for detecting TAMRA fluorescence (excitation wavelength of 540 nm and emission wavelength of 580 nm). A PHERAStar plate (BMG labtech) reader was used with a gain value of 570. The Intensity/Background (I/Bg), defined as [(Average of columns 1 and 2; DMSO controls)/(Average of columns 23 and 24; no enzyme controls)], were about 5.
# The activities of the compounds disclosed in the present disclosure in inhibiting BRCC36 enzyme activity was measured in accordance with the method disclosed in Example 2.
row,IC50 [µM],SMILES
1,10 to 50,O=C(NCCCN1CCCC1)c1nn(C(=O)c2c(Cl)cccc2Cl)cc1NC(=O)c1c(Cl)cccc1Cl
2,10 to 50,CC1CN(C(=O)c2nn(C(=O)c3c(Cl)cccc3Cl)cc2NC(=O)c2c(Cl)cccc2Cl)CC(C)N1 (centres unmarked)

# Same assay, conditions: read-out: BRISC IC50 μM Range; Table 2, method of Example 2
row,IC50 [µM],SMILES
1,10 to 50,NCCCCCCOc1ccc(S(=O)(=O)n2cc(NC(=O)c3c(Cl)cccc3Cl)c(C(=O)NC3CCNCC3)n2)cc1
2,10 to 50,O=C(NC(CCCCNC(=O)c1c(Cl)cccc1Cl)C(=O)NCc1ccccc1)OCc1ccccc1 (centres unmarked)
3,1 to 10,O=C(NC1CCNCC1)c1nn(C(=O)c2c(Cl)cccc2Cl)cc1NCc1ccc(Cl)cc1
4,1 to 10,O=C(Nc1cn(C(=O)c2c(Cl)cccc2Cl)nc1C(=O)NC1CCNCC1)c1cc([N+](=O)[O-])ccc1Cl
5,10 to 50,O=C(Nc1cn(C(=O)c2c(Cl)cccc2Cl)nc1C(=O)NC1CCNCC1)c1cccs1
6,10 to 50,COc1ccc(C(=O)Nc2cn(C(=O)c3c(Cl)cccc3Cl)nc2C(=O)NC2CCNCC2)cc1OC
7,10 to 50,CC(C)(C)OC(=O)NCC(=O)NCCCCC(NC(=O)OCc1ccccc1)C(=O)NCc1ccccc1 (centres unmarked)
8,1 to 10,CC(C)C[C@H](NC(=O)OCc1ccccc1)C(=O)N[C@@H](C)C(=O)NCc1cccc(C(=O)NO)c1
9,1 to 10,NCCNC(=O)c1nn(C(=O)c2c(Cl)cccc2Cl)cc1NC(=O)c1c(Cl)cccc1Cl
10,1 to 10,CC(C)C[C@H](NC(=O)OCc1ccccc1)C(=O)N[C@@H](C)C(=O)NCc1ccc(C(=O)NO)cc1
11,10 to 50,O=C(Nc1ccncc1)c1nn(C(=O)c2c(Cl)cccc2Cl)cc1NC(=O)c1c(Cl)cccc1Cl
12,10 to 50,Nc1ccc(S(=O)(=O)n2cc(NC(=O)c3c(Cl)cccc3Cl)c(C(=O)NC3CCNCC3)n2)cc1
13,10 to 50,O=C(NC1CCNCC1)c1nn(S(=O)(=O)c2ccc([N+](=O)[O-])cc2)cc1NC(=O)c1c(Cl)cccc1Cl
14,10 to 50,O=C(Nc1cn(C(=O)c2c(Cl)cccc2Cl)nc1C(=O)NC1CCNCC1)c1ccccc1F
15,1 to 10,C#CCCCCNC(=O)COc1ccc(S(=O)(=O)n2cc(NC(=O)c3c(Cl)cccc3Cl)c(C(=O)NC3CCNCC3)n2)cc1
16,10 to 50,O=C(O)COc1ccc(S(=O)(=O)n2cc(NC(=O)c3c(Cl)cccc3Cl)c(C(=O)NC3CCNCC3)n2)cc1
17,1 to 10,O=C(Nc1cn(C(=O)c2c(Cl)cccc2Cl)nc1C(=O)NC1CCNCC1)c1cccnc1C(F)(F)F
18,10 to 50,O=C(CNC(=O)CNC(=O)OCc1ccccc1)NCc1ccc(C(=O)NO)cc1
19,1 to 10,O=C(Nc1cn(C(=O)c2c(Cl)cccc2Cl)nc1C(=O)NC1CCNCC1)c1cccc(Cl)c1
20,10 to 50,O=C(Nc1cn(C(=O)c2c(Cl)cccc2Cl)nc1C(=O)NC1CCNCC1)c1cccc(CN2CCOCC2)c1
21,10 to 50,COc1ccc(CCS(=O)(=O)n2cc(NC(=O)c3c(Cl)cccc3Cl)c(C(=O)NC3CCNCC3)n2)cc1
